Values of other authors, collected in patent publication US20150164812A1, “Porous Tablets As Carriers For Liquid Formulations” (Veloxis Pharmaceuticals A/S, priority 2004, published 2015).
Only a part of the results on these compounds is given; other tests are left out.

Conditions: Table 1 Poorly-Soluble Drug Candidates

In the case of CCC(=O)N(c1ccccc1)C1CCN(CCc2ccccc2)CC1, the “Solubility In Water” value is given as “Sparingly”.
